Target: COX-1 (Homo sapiens, UniProt P23219)
Assay: COX-1 inhibitory activity
Type: biochemical

Amino acid sequences for entries named in this document (tags omitted). Residues count along the entry.
UniProt P23219, 24-599: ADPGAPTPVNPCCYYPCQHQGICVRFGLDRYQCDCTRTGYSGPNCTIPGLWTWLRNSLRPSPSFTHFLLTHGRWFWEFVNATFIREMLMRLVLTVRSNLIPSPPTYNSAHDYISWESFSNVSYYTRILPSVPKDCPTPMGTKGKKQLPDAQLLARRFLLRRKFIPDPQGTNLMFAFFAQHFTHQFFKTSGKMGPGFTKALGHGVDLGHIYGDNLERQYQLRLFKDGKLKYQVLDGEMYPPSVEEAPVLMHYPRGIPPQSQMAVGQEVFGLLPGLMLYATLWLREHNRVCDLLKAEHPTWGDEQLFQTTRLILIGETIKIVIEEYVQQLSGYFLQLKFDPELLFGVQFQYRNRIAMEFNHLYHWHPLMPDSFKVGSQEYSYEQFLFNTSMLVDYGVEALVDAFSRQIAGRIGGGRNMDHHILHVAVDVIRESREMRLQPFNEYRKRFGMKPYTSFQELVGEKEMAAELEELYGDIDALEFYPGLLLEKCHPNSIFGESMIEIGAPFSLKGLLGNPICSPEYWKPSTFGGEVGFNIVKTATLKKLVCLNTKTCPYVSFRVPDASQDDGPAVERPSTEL

CS(=O)(=O)c1ccc(C2=C(c3ccccc3)C(=O)OC2)cc1 [Rofecoxib]
IC50: > 300 µM

Source: US8044048B2, “Derivatives of sulindac, use thereof and preparation thereof” (Southern Research Institute, priority 2006, dated 2011)
